Measured values as given in publication PMC10532679.
pKd: −log10 of the molar value.

Tests used:
[1] = biological target: Crosstide
[2] = biological target: full-length CREB fused to an N-terminal glutathione-S-transferase tag (GST-CREB) (UniProt P16220)
[3] = biological target: Kemptide
[4] = biological target: CREBtide (Homo sapiens) (UniProt P16220); conditions: cited from earlier work
[5] = biological target: CREBtide; conditions: cited from earlier work

Substance | K (m,app), steady-state kinetics analysis (ADP-Glo) [1] [µM] | K (m,app), steady-state kinetics analysis (ADP-Glo) [2] [µM] | K (m,app), steady-state kinetics analysis (ADP-Glo) [3] [µM] | pKd [4] | pKd [5]
wild-type H6-PKA-Cα, untreated (alpha isoform of the catalytic subunit of cAMP-dependent protein kinase) (from UniProt P05132 2-351) (enzyme) | 73.4 | 3.39 | 44 |  | 
PKA-Cα (from UniProt P17612) |  |  |  | 5.41 | 5.41
